Measured values reported in PMC10135263, “Comparison of Intravenous Microdialysis and Standard Plasma Sampling for Monitoring of Vancomycin and Meropenem Plasma Concentrations—An Experimental Porcine Study” (Antibiotics, 2023).

What was measured:
[1] = in vitro, human plasma mixed with fixed vancomycin concentrations, intravenous microdialysis sampling; cited from earlier work
Description: For vancomycin, two studies, one in vitro and one in vivo, have evaluated the feasibility of intravenous microdialysis. The in vitro study used human plasma mixed with fixed vancomycin concentrations to evaluate the feasibility of intravenous microdialysis sampling. Compared to our study, they found a higher relative recovery (91% ± 3.7%), and concluded good feasibility, as a steady relative recovery was found. The apparent differences between the in vitro study design and the present porcine in vivo design may readily explain the different findings. The in vivo study conducted ...

[2] = Pharmacokinetics from continuous intravenous microdialysis sampling (subclavian vein), free unbound concentrations; details: vancomycin 1 g iv infused over 100 min, co-administered with meropenem, eight female pigs, 30 mm membrane, 20 kD cut-off, 1 μL/min, UHPLC-MS/MS, recovery-corrected, mean (95% confidence interval)

In the case of `CN[C@H](CC(C)C)C(=O)N[C@H]1C(=O)N[C@@H](CC(N)=O)C(=O)N[C@H]2C(=O)N[C@H]3C(=O)N[C@H](C(=O)N[C@H](C(=O)O)c4cc(O)cc(O)c4-c4cc3ccc4O)[C@H](O)c3ccc(c(Cl)c3)Oc3cc2cc(c3O[C@@H]2O[C@H](CO)[C@@H](O)[C@H](O)[C@H]2O[C@H]2C[C@](C)(N)[C@H](O)[C@H](C)O2)Oc2ccc(cc2Cl)[C@H]1O` [Vancomycin, vancomycin], the Relative recovery [1] is listed as 91% ± 3.7 and the “AUC0–8h” value [2] is listed as 2874 (1639; 4109) min µg/mL.
